The values that follow are results of earlier work, collected in patent US11013780B2, “Methods of treating female infertility” (Myovant Sciences GmbH, priority 2016, dated 2021).

The conditions of the data set: in vivo; cited from earlier work.

With “hCG: human chorionic gonadotropin hormone, used as a trigger due to its structural similarity to LH”, the Half-life was 24 to 36 h.
